These results are taken from paper PMC9099123 (Clinical and Translational Science, 2022).

The series in a line: Safety and tolerability. It counts as in vivo, human.

As to `CNC(=O)c1ccc(N2C(=S)N(c3ccc(C#N)c(C(F)(F)F)c3)C(=O)C2(C)C)cc1F` [enzalutamide], the “patients reporting TEAEs” value came out at 20.8% (following administration of enzalutamide, 12 TEAEs, five patients) and 4.3% (following administration of the cocktail in combination with enzalutamide, two TEAEs, one patient).
